Reference: paper PMC7253423, “Quassinoid analogs with enhanced efficacy for treatment of hematologic malignancies target the PI3Kγ isoform” (Communications Biology, 2020)

Experiments:
MOLM14 cells = experiment: Cell viability assay (CellTiter-Glo luminescence); type: cell-based; details: human
Method: (§1) 5000 cells as indicated were cultured in 96-well plate with 100 μl of media. On the next day, Brusatol or associated analogs were added once to the cells without media change. After treatment, the cells were incubated with 100 μl buffer for 10 min at room temperature following the instructions of CellTiter-Glo kit (Promega, Madison, WI). Luminescence was detected using a multi-mode reader Cytation 5 (BioTek, Winooski, VT). Brusatol or its analogs are dissolved in 100% ethanol and diluted in 1 × PBS for treatment. Two independent experiments done in duplicates were performed.

Raji cells = experiment: Cell viability assay (CellTiter-Glo luminescence); type: cell-based; details: human
Method: as §1

SU-DHL-4 cells = experiment: Cell viability assay (CellTiter-Glo luminescence); type: cell-based; details: human
Method: as §1

normal T-cells = experiment: Cytotoxicity, cell viability assay in normal cells; type: cell-based, human; details: fraction of 0 μM control
From the text: Human peripheral blood mononuclear cells (PBMCs), normal T-cells and B-cells were provided by the University of Pennsylvania Human Immunology Core (HIC), and Patient-derived xenografts (PDXs) were obtained from Fox Chase Cancer Center (FCCC). These samples were from different unidentified and healthy donors with written, informed consent. All the procedures were approved by the Institutional Review Board (IRB) and conducted according to the declarations of Helsinki protocols.
as §1

Q: What does the source list for C[C@H](Nc1ncnc2[nH]cnc12)c1cc2cccc(Cl)c2c(=O)n1-c1ccccc1 [Duvelisib]?
A: relative cell viability (Fig 6e), replicates (MOLM14 cells; 0.00976562 μM): 1.129; relative cell viability (Fig 6e), replicates (MOLM14 cells; 0.0390625 μM): 1.0712; relative cell viability (Fig 6e), replicates (MOLM14 cells; 0.625 μM): 1.2778; relative cell viability (Fig 6e), replicates (MOLM14 cells; 2.5 μM): 1.048; relative cell viability (Fig 6f), replicates (Raji cells; 0.00244141 μM): 0.9023; relative cell viability (Fig 6f), replicates (Raji cells; 0.0390625 μM): 1.115; relative cell viability (Fig 6f), replicates (Raji cells; 0.15625 μM): 0.8918; relative cell viability (Fig 6f), replicates (Raji cells; 0.625 μM): 1.0906; relative cell viability (Fig 6d), replicates (SU-DHL-4 cells; 0.625 μM): 0.6063; relative cell viability (Fig 6d), replicates (SU-DHL-4 cells; 10 μM): 0.2289; relative cell viability (Fig 6b), replicates (normal T-cells; Con. 0.00390625 μM): 1.005; relative cell viability (Fig 6b), replicates (normal T-cells; Con. 0.25 μM): 0.9949
